Results from publication PMC4775085 (ACS chemical neuroscience, 2015).
pIC50: −log10 of the molar value. Structures can show the parent of a compound that is named as a salt.

Sequences of proteins named here, by UniProt entry; tags and fusion partners are left off. A change or cut given only in a name is not applied to a line headed by its entry.
UniProt P56524: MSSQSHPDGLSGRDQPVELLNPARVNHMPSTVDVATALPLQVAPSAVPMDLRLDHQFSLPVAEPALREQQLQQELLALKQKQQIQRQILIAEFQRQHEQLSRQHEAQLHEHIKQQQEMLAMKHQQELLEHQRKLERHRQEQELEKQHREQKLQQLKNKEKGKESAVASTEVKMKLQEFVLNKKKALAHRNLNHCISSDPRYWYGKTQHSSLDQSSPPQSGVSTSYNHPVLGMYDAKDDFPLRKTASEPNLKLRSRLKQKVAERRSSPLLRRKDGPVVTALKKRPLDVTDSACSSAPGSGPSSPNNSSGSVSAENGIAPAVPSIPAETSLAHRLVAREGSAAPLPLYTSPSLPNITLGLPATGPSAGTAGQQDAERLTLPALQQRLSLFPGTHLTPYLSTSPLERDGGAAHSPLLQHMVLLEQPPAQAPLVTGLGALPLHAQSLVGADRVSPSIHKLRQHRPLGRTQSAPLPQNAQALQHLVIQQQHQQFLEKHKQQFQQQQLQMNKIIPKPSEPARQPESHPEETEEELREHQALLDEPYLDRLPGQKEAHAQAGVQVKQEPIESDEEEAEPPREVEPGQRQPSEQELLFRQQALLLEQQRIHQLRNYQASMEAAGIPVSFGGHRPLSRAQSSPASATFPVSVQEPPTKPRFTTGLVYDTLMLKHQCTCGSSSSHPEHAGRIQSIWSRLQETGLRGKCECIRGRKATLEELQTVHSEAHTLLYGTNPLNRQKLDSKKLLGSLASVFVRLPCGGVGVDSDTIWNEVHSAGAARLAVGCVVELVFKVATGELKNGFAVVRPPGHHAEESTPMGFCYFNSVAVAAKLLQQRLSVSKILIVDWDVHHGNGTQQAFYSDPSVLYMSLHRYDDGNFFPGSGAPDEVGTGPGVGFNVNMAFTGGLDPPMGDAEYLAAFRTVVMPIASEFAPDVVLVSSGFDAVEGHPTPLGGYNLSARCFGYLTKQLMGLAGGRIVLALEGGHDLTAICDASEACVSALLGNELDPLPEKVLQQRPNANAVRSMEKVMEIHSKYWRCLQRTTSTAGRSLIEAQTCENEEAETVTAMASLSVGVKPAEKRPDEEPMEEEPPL

Molecular target: HDAC4 (Homo sapiens, UniProt P56524)
Experiment: HDAC4 enzymatic inhibition assay

In the case of `CN1CCc2c(c3ccccc3n2Cc2ccc(C(=O)NO)cc2)C1` [TubaA HCl, tubastatin A, reference compound], the pIC50 was 5.79.
